# Binding of CDR-mutated scFvs to a peptide of the spike HR2 region

Source: Li et al. 2023 (doi:10.1038/s41467-023-39022-2), MIT Lincoln Laboratory and A-Alpha Bio; data file from the FLAb repository.

Target: peptide PDVDLGDISGINAS, taken from heptad repeat 2 (HR2) of SARS-CoV-2 spike.

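Phage display of a naive human antibody library on the peptide gave the parent. These sequences belong to a second round, designed from the earlier measurements on random variants of the parent. Their group label is 14L_En_Gen (En: ensemble of fine-tuned language models; Gen: genetic algorithm). Affinity was read by AlphaSeq, a pooled yeast mating assay with surface-displayed partners. Pairs that bind mate more often; barcode pairs of the diploids are counted by sequencing. Read counts were normalised to the haploid input and turned into Kd by a linear fit to BCL2-family pairs of known affinity, for each replicate. Each pool was mated in six replicate cultures.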

Parent: Ab-14, a human scFv built as VH, the linker GGGGSGGGGSGGGGS, VL. Only the CDRs of the light chain vary.
VH: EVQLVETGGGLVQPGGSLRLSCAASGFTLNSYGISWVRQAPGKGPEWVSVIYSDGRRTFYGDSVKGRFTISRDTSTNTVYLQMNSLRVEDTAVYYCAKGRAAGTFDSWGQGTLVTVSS
VL: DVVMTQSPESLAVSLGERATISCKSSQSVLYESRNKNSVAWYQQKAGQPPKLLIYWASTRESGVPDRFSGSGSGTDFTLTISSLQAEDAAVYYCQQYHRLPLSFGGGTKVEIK

Variants are written as CDR1, CDR2 and CDR3 of the light chain (limits as in the source). Parent: KSSQSVLYESRNKNSVA, WASTRES, QQYHRLPLS.
Affinities are written as log10 Kd with Kd in nM; a lower number is a better binder.
A pair that was not seen in that replicate is written "n.d."; this usually means weak binding, but a binder can also be missed.

CDR-L1	CDR-L2	CDR-L3	log10 Kd (nM) by replicate	control signals
MVSQLMLWGYHAKNSIA	EAQMRLN	QQYDRLPLF	n.d. n.d. n.d. 1.81 n.d. n.d.	0/18
KISMLINQTFQASNNVA	EMVTREK	QQYHRLPLS	1.16 0.81 0.75 0.81 1.13 1.04	0/18
TISQMTSLFSQTINNVA	EVSTREE	QQYDRLPLT	n.d. 2.20 2.17 1.04 1.01 3.11	0/18
MMSQVTGLGQRHRNNVA	QTSTREE	QQYDRLPLA	0.60 0.54 0.79 0.47 0.36 0.65	1/18 (2.58)
IVSQLMLWGMHAKNSIA	EAETRIN	QQYHRLPLF	n.d. 1.07 n.d. 0.84 n.d. 1.78	0/18
HVSMLTLGGLKNRNSVA	QMTTREN	QQYDRLPLS	0.67 0.42 0.38 0.28 0.08 0.14	0/18
MISQLMNMGTFAINSVA	QASLRNE	QQYDRLPLT	2.14 2.15 1.61 1.78 2.32 n.d.	0/18
SISGFMKSLSAHINNVA	DMTNREN	QQYDRLPLS	0.03 0.45 0.02 -0.06 0.27 -0.01	0/18
KLSGIMRLEQKKSNSIA	EVNERSE	QQYDRLPLS	0.76 -0.06 0.36 0.11 0.58 0.81	0/18
KVSEFMRGLMGRKDSIA	DNVTRSN	QQYDRLPLS	1.41 0.67 1.06 0.66 0.74 0.91	2/18 (2.83)
KLTMITGLEKVSKNQVA	EMETREK	QQYNRLPLS	-0.10 0.06 -0.11 0.14 0.48 0.55	2/18 (1.49)
MISQLMNMGQFAINSVA	QATIRNS	QQYDRLPLT	n.d. 1.55 1.17 2.14 2.12 2.30	1/18 (1.76)
TISQVMNTMTRHGNNVA	DLTERED	QQYFRLPLS	0.26 0.47 0.18 0.32 0.08 0.32	1/18 (2.82)
KISQMVRVGSTVSNSIA	EEVTRAK	QQYHRLPLF	1.61 1.45 1.39 1.18 1.14 1.81	0/18
TISQMSTLFSQSIQNVA	EVSTRLN	QQYDRLPLA	0.94 0.38 0.30 0.41 0.60 0.46	4/18 (2.66)
HMSMLTLGGQRHRNAVA	QMTTREN	QQYDRLPLT	2.24 0.87 1.08 1.37 0.97 1.89	1/18 (2.06)
KISQMVKVGATKSNSIA	EMVTRAN	QQYHRLPLA	1.03 1.16 0.93 1.12 0.97 1.05	1/18 (2.41)
TISQITSLFSQTINNVA	EVTTREE	QQYDRLPLT	n.d. 1.30 n.d. 1.44 n.d. n.d.	0/18
TISQLMNMGQFAINSVA	QATIRNA	QQYDRLPLI	1.05 1.61 0.20 1.17 1.01 1.23	0/18
HLGLVTELEAKVSNSVA	NNSTREE	QQYDRLPLS	1.79 1.82 1.69 1.30 1.56 1.75	2/18 (2.70)
IVSQLMLWGYTAKNSIA	EAETRIN	QQYHRLPLI	2.15 1.62 n.d. 2.85 1.65 1.28	1/18 (2.38)
KISQTNEMELKNRNSVA	ELVTRMS	QQYNRLPLS	0.85 0.54 1.48 0.68 0.57 0.94	0/18
HITYGMMLAGRHSSSIA	QAEERAK	QQYDRLPLI	0.43 0.23 0.40 0.24 0.31 0.26	0/18
KLTSVTGTEKVRGNNVA	EMETRES	QQYNRLPLS	0.30 0.20 0.74 0.45 0.25 0.50	0/18
MISQLMNLGQFAINSVA	QASIRNI	QQYDRLPLA	1.11 1.38 1.43 1.46 1.26 4.48	1/18 (1.95)
MMSQVTGSGQRHRNNVA	QTSMREI	QQYDRLPLI	1.33 1.43 1.03 1.21 1.75 1.57	1/18 (3.17)
KIGMTLNMMMHSKNNVA	DLVTREN	QQYHRLPLS	1.18 0.56 1.01 0.82 1.18 1.67	0/18
KLSGIMRLESKNKSNIA	EVNERSE	QQYDRLPLS	0.99 0.89 1.09 0.87 0.82 1.34	2/18 (3.39)
HITYGMMLMGRHSKSIA	QAEERAK	QQYDRLPLA	0.90 1.10 1.24 0.95 1.22 1.22	0/18
KISQMTRVGSTHGNSIA	EEVTRAK	QQYHRLPLS	3.14 2.28 n.d. 2.75 1.69 2.18	1/18 (1.82)
MISQLYNMGSFAINSVA	QASMRNA	QQYDRLPLM	3.08 n.d. 1.98 1.75 2.49 2.46	0/18
KISQMIRVGSTHHNSIA	EEATRAK	QQYHRLPLA	1.32 0.94 1.45 1.19 1.39 1.56	1/18 (2.88)
KLSGLMASSKFAKDNVA	ENNTREA	QQYDRLPLS	n.d. 2.62 n.d. 2.28 n.d. n.d.	0/18
TISQMTSLFSQSINNVA	EVSTREE	QQYDRLPLM	1.09 1.06 0.65 0.79 0.82 0.64	0/18
MLSQVMNTLTRHGNNVA	DLENRED	QQYFRLPLS	1.53 n.d. n.d. 2.27 n.d. n.d.	0/18

Excerpt, the first 5 entries:

{"CDR-L1": "MVSQLMLWGYHAKNSIA", "CDR-L2": "EAQMRLN", "CDR-L3": "QQYDRLPLF", "log10 Kd (nM) by replicate": "n.d. n.d. n.d. 1.81 n.d. n.d.", "control signals": "0/18"}
{"CDR-L1": "KISMLINQTFQASNNVA", "CDR-L2": "EMVTREK", "CDR-L3": "QQYHRLPLS", "log10 Kd (nM) by replicate": "1.16 0.81 0.75 0.81 1.13 1.04", "control signals": "0/18"}
{"CDR-L1": "TISQMTSLFSQTINNVA", "CDR-L2": "EVSTREE", "CDR-L3": "QQYDRLPLT", "log10 Kd (nM) by replicate": "n.d. 2.20 2.17 1.04 1.01 3.11", "control signals": "0/18"}
{"CDR-L1": "MMSQVTGLGQRHRNNVA", "CDR-L2": "QTSTREE", "CDR-L3": "QQYDRLPLA", "log10 Kd (nM) by replicate": "0.60 0.54 0.79 0.47 0.36 0.65", "control signals": "1/18 (2.58)"}
{"CDR-L1": "IVSQLMLWGMHAKNSIA", "CDR-L2": "EAETRIN", "CDR-L3": "QQYHRLPLF", "log10 Kd (nM) by replicate": "n.d. 1.07 n.d. 0.84 n.d. 1.78", "control signals": "0/18"}

Background: pairings of all light chain designs with three empty control strains gave a value in 4% of cases (median 2.64, 5th percentile 1.59). Values in that range, when seen in few replicates, are hard to tell from nonspecific mating. The control count says in how many pairings with the empty strains this scFv gave a signal, with their mean in brackets.
The range of this assay differs from that of the first round, and the authors advise against merging the two.
In the paper, a design with two or fewer of six values counts as a poor binder.
The parent sequence was in this pool as ten entries: three were never detected, three once, and four in most replicates, with averages from 0.34 to 2.37.